Data published in patent publication US11939344B2, “Spirocyclic compounds” (ASTRAZENECA AB, priority 2021, dated 2024).
Where two headings read alike, the source gives them in different places.

Tests used:
[1] = test system: HCT116 KO-MTAP cells; assay: Cell proliferation assay (Alamar Blue), MTAP KO cells; format: cell-based; details: Homo sapiens
Description: (§1) Cell Proliferation Assays:
(§2) A day 0 plate is created in parallel but not dosed, after plating 4 μl of Alamar Blue (Thermo #DAL1100) and incubate for 3 h at 37 C, 5% CO2. Following incubation plates are read using an EnVision plate reader with fluorescence excitation wavelength of 540-570 nm (peak excitation is 570 nm), fluorescence emission at 580-610 nm (peak emission is 585 nm).
(§3) The dosed cell plates were then incubated for 5 days at 37° C. before adding Alamar blue and being read in the Envision following same protocol as for first plate.

[2] = test system: HCT116 WT cells; assay: Cell proliferation assay (Alamar Blue), MTAP WT cells; format: cell-based; details: Homo sapiens, HCT-116, 120 h, 5 days
Description: as §1, §2, §3

CC#CCN1CC[C@@]2(C1=O)c1ccc(F)cc1C(=O)N2Cc1cc2nc(N)c(F)cc2[nH]1 [Example 2, (S)-2-((5-Amino-6-fluoro-1H-pyrrolo[3,2-b]pyridin-2-yl)methyl)-1′-(but-2-yn-1-yl)-5-fluorospiro[isoindoline-1,3′-pyrrolidine]-2′,3-dione]
IC50 ([1]; HCT-116, 120 h, HCT116 MTAP KO, 5 days, read-out: Cell proliferation IC50 (μM) (MTAP KO)): 0.24 µM
IC50 ([1]; HCT-116, column 6, read-out: Cell proliferation IC50 in MTAP KO cells): 0.24 µM
IC50 [2]: 6.1 µM
